The values that follow are results of earlier work, collected in patent publication US8202852B2, “Creatine phosphate analog prodrugs, compositions and uses thereof” (XenoPort, Inc., priority 2006, dated 2012).

The conditions of the data set: ALS.

Regarding `Nc1nc2ccc(OC(F)(F)F)cc2s1` [riluzole], the extension of survival result was “about three”.
